Assay: PK parameters of cabozantinib and measured metabolites in human subjects
Type: in vivo
Conditions: plasma, oral, 140 mg/day, read-out: t1/2, apparent terminal elimination half-life (converted)

COc1cc2nccc(Oc3ccc(NC(=O)C4(C(=O)Nc5ccc(F)cc5)CC4)cc3)c2cc1OC [Cabozantinib, N-(4-{[6,7-bis(methyloxy)quinolin-4-yl]oxy}phenyl)-N′-(4-fluorophenyl)cyclopropane-1,1-dicarboxamide, reference compound]
half-life: 102 h
